Read-out in assay [1]: HMG-CoA synthase (HMGCS2), HMGCS2 (gene 3158)
Briefly: CLD_HMGCS2_6hr: CellzDirect (CLD) Gene Expression Assay for HMG-CoA synthase (HMGCS2) at 6 hours (AID 2283682).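 Further: actives raise HMGCS2 transcript above the 0.2% DMSO vehicle baseline.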 Put shortly: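 HMGCS2 transcript induction read by quantitative nuclease protection with chemiluminescence, 6 h after dosing of primary human hepatocytes. Baseline was 0.2% DMSO vehicle; phase-contrast morphology gave a yes/no cytotoxicity annotation.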

Protein sequences, listed by entry. Tags and fused reporters are not part of them. Lines headed by an entry give the natural chain unless they say otherwise; changes in a name come on top.
UniProt Q9UNQ0: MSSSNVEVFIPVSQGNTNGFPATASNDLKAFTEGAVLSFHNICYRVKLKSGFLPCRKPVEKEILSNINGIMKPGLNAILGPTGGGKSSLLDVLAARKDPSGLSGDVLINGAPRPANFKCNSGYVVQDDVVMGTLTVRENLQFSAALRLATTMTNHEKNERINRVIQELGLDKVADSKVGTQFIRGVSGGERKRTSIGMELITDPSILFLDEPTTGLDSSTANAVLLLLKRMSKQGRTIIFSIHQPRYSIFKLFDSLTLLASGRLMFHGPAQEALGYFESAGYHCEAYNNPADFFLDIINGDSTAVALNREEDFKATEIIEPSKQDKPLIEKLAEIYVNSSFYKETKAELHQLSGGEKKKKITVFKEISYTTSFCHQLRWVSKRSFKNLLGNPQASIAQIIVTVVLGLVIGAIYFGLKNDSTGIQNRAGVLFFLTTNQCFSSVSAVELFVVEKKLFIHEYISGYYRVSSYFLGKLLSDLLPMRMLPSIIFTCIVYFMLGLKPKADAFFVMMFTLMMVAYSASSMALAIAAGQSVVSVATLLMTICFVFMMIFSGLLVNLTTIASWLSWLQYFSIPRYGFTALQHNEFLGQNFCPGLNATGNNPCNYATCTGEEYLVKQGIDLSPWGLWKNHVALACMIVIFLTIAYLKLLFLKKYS
UniProt P20813: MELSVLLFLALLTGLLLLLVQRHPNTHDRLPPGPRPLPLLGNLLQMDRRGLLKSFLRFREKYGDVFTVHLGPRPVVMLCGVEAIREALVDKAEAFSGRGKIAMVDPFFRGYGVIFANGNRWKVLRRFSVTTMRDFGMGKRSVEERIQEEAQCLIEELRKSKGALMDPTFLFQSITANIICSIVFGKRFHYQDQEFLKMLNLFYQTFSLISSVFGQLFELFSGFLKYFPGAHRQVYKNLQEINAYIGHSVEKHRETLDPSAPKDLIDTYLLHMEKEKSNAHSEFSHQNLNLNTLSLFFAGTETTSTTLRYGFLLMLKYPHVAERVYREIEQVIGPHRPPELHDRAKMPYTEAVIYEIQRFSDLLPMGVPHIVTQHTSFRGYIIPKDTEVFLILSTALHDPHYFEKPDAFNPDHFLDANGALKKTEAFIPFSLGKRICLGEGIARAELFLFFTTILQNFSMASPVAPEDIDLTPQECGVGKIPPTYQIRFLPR
UniProt P33261, whole entry, looked up: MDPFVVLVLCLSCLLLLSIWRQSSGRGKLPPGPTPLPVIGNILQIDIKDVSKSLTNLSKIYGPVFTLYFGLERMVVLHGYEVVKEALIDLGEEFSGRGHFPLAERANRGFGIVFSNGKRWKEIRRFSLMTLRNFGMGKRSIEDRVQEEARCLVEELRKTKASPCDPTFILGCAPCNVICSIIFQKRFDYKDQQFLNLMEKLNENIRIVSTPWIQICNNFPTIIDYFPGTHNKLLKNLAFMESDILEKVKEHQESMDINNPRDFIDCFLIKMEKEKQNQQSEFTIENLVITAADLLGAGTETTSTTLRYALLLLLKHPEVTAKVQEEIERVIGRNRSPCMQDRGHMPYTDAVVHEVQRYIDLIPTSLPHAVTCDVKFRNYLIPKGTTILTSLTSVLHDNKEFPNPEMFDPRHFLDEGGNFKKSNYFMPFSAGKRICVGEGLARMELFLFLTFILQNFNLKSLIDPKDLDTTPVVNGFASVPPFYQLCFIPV
UniProt P08684, whole entry, looked up: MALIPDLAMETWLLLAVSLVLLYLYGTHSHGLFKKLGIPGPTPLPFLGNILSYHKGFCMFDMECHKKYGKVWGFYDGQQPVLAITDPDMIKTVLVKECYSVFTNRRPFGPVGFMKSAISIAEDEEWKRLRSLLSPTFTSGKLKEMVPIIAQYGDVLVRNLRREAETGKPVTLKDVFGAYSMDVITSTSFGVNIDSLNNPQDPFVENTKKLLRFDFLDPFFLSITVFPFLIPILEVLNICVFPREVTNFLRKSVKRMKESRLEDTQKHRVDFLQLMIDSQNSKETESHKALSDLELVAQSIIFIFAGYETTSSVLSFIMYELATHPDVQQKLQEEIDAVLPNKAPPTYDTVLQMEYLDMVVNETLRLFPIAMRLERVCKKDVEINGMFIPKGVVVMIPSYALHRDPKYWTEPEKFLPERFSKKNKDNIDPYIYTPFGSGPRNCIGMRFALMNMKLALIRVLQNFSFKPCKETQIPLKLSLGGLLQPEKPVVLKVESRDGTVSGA
UniProt P04406: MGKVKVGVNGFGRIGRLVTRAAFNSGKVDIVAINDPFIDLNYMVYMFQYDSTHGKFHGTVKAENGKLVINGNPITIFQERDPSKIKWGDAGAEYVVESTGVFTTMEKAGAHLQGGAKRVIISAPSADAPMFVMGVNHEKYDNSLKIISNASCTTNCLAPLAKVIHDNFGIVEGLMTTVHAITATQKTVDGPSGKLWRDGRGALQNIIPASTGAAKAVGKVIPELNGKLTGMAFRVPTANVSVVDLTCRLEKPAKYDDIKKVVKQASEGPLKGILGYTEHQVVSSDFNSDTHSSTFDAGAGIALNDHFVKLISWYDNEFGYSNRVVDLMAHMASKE

Read-out in assay [2]: xenobiotic metabolism (CYP1A2), CYP1A2 (gene 1544)
Nature of the assay: CLD_CYP1A2_24hr: CellzDirect (CLD) Gene Expression Assay for xenobiotic metabolism (CYP1A2) at 24 hours (AID 2283683). Put shortly: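 CYP1A2 mRNA induction measured by quantitative nuclease protection (chemiluminescent) in human primary hepatocytes 24 h after multi-concentration chemical dosing with daily fresh solutions. DMSO (0.2%) baseline; positive-direction fitting; morphology-based cytotoxicity noted.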

Read-out in assay [3]: ABC Transporter (ABCB1), ABCB1 (gene 5243)
Nature of the assay: CLD_ABCB1_24hr: CellzDirect (CLD) Gene Expression Assay for ABC Transporter (ABCB1) at 24 hours (AID 2283684).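 On AC50: potency for increase in ABCB1 mRNA relative to DMSO vehicle.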 Put shortly: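 ABCB1 mRNA induction versus 0.2% DMSO vehicle was read by qNPA chemiluminescence at 24 h. Cultured human hepatocytes from two donor preparations received daily fresh dosing, and phase-contrast cytotoxicity calls were annotated alongside the data.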

Read-out in assay [4]: Broad substrate specificity ATP-binding cassette transporter ABCG2 (Homo sapiens) (UniProt Q9UNQ0)
Nature of the assay: CLD_ABCG2_24hr: CellzDirect (CLD) Gene Expression Assay for ABC Transporter (ABCG2) at 24 hours (AID 2283685). Put shortly: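 ABCG2 mRNA induction, read as gain of chemiluminescent signal over 0.2% DMSO, was measured by quantitative nuclease protection at 24 h. Cultured human liver hepatocytes were given fresh dosing solutions of test chemicals at several concentrations each day.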

Read-out in assay [5]: Cytochrome P450 2B6 (Homo sapiens) (UniProt P20813)
Briefly: CLD_CYP2B6_24hr: CellzDirect (CLD) Gene Expression Assay for xenobiotic metabolism (CYP2B6) at 24 hours (AID 2283686). Put shortly:
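qNPA chemiluminescent measurement of mRNA at 24 hours in human primary hepatocyte cultures from two donor preparations, with daily fresh dosing and 0.2% DMSO vehicle as baseline. Morphology-based cytotoxicity flagged yes/no.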

Read-out in assay [6]: Cytochrome P450 2C19 (Homo sapiens) (UniProt P33261)
Nature of the assay: CLD_CYP2C19_24hr: CellzDirect (CLD) Gene Expression Assay for xenobiotic metabolism (CYP1A2) at 24 hours (AID 2283687).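 Further: activity means mRNA induction above DMSO vehicle baseline.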 Put shortly:
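CYP2C19 mRNA was quantified by qNPA chemiluminescence after 24 h of daily dosing of cultured human primary hepatocytes from two donors; vehicle was 0.2% DMSO, and increases over DMSO baseline were fitted.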

Read-out in assay [7]: Cytochrome P450 3A4 (Homo sapiens) (UniProt P08684)
Briefly: CLD_CYP3A4_24hr: CellzDirect (CLD) Gene Expression Assay for xenobiotic metabolism (CYP3A4) at 24 hours (AID 2283689). Put shortly:
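CYP3A4 mRNA induction read by quantitative nuclease protection (chemiluminescence) 24 hr after dosing. Cultured human hepatocytes (two donor preparations) treated daily, vehicle 0.2% DMSO; phase-contrast morphology annotates cytotoxicity.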

Read-out in assay [8]: organic anion transporter (SLCO1B1), SLCO1B1 (gene 10599)
Briefly: CLD_SLCO1B1_24hr: CellzDirect (CLD) Gene Expression Assay for organic anion transporter (SLCO1B1) at 24 hours (AID 2283690). Put shortly:
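SLCO1B1 mRNA induction read at 24 h by quantitative nuclease protection assay (chemiluminescence), analyzed against DMSO baseline. Human hepatocyte cultures from separate donors received fresh dosing solutions daily; vehicle 0.2% DMSO; cytotoxicity flagged by phase-contrast morphology.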

Read-out in assay [9]: alkyl and aryl transferase (GSTA2), GSTA2 (gene 2939)
Briefly: CLD_GSTA2_24hr: CellzDirect (CLD) Gene Expression Assay for alkyl and aryl transferase (GSTA2) at 24 hours (AID 2283693). Put shortly:
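GSTA2 transcript levels were quantified by quantitative nuclease protection assay in primary human hepatocytes 24 h after daily dosing with fresh solutions at multiple concentrations; 0.2% DMSO vehicle as baseline, cytotoxicity flagged morphologically.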

Read-out in assay [10]: sulfotransferase (SULT2A), SULT2A1 (gene 6822)
Nature of the assay: CLD_SULT2A_24hr: CellzDirect (CLD) Gene Expression Assay for sulfotransferase (SULT2A) at 24 hours (AID 2283694).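 On AC50: potency for increased SULT2A1 mRNA level as induction over DMSO baseline.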 Put shortly:
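mRNA is measured by qNPA: probe hybridisation, S1 nuclease digestion, chemiluminescence, in lysates from human primary hepatocytes harvested 24 h after daily dosing. Vehicle was 0.2% DMSO. Phase-contrast microscopy flagged cytotoxicity (yes/no).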

Read-out in assay [11]: ABC Transporter (ABCB1), ABCB1 (gene 5243)
Nature of the assay: CLD_ABCB1_48hr: CellzDirect (CLD) Gene Expression Assay for ABC Transporter (ABCB1) at 48 hours (AID 2283695). Put shortly:
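ABCB1 mRNA was measured by quantitative nuclease protection assay (chemiluminescence) 48 h after dosing. Human hepatocyte cultures from two separate donors received fresh dosing solutions daily for two days, with 0.2% DMSO as vehicle. Positive-direction fit against DMSO.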

Read-out in assay [12]: glucuronosyltransferase (UGT1A1), UGT1A1 (gene 54658)
Nature of the assay: CLD_UGT1A1_24hr: CellzDirect (CLD) Gene Expression Assay for glucuronosyltransferase (UGT1A1) at 24 hours (AID 2283696). Put shortly:
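UGT1A1 transcript induction was measured by quantitative nuclease protection assay (chemiluminescence) in human hepatocyte cultures 24 h after daily fresh dosing, with 0.2% DMSO as vehicle and baseline.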

Read-out in assay [13]: Cytochrome P450 3A4 (Homo sapiens) (UniProt P08684)
Briefly: CLD_CYP3A4_48hr: CellzDirect (CLD) Gene Expression Assay for xenobiotic metabolism (CYP3A4) at 48 hours (AID 2283698). Put shortly:
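CYP3A4 induction read by qNPA chemiluminescence after 48 h, with fresh dosing solutions on consecutive days, in cultured human hepatocytes (two donors). Vehicle 0.2% DMSO as baseline; microscopy-based cytotoxicity annotated yes/no alongside data.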

Read-out in assay [14]: Cytochrome P450 2B6 (Homo sapiens) (UniProt P20813)
Briefly: CLD_CYP2B6_48hr: CellzDirect (CLD) Gene Expression Assay for xenobiotic metabolism (CYP2B6) at 48 hours (AID 2283699).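 Further: actives raise transcript level above DMSO so potency reflects induction.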 Put shortly:
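CYP2B6 transcript induction, read by quantitative nuclease protection (S1 digestion, chemiluminescent detection) 48 h after dosing, is fitted upward against 0.2% DMSO. Cultured human liver primary cells, two donor preparations, received fresh chemical daily over multiple concentrations.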

Read-out in assay [15]: xenobiotic metabolism (CYP1A2), CYP1A2 (gene 1544)
Briefly: CLD_CYP1A2_48hr: CellzDirect (CLD) Gene Expression Assay for xenobiotic metabolism (CYP1A2) at 48 hours (AID 2283703). Put shortly:
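Cytotoxicity was flagged yes/no from morphology, while CYP1A2 transcript induction was detected by qNPA chemiluminescence after a 48-hour exposure. Human primary hepatocyte cultures from separate donors received fresh dosing solutions daily over two days, with 0.2% DMSO as vehicle and baseline.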

Read-out in assay [16]: Broad substrate specificity ATP-binding cassette transporter ABCG2 (Homo sapiens) (UniProt Q9UNQ0)
Briefly: CLD_ABCG2_48hr: CellzDirect (CLD) Gene Expression Assay for ABC Transporter (ABCG2) at 48 hours (AID 2283704). Put shortly: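 ABCG2 transcript measured at 48 h by quantitative nuclease protection (chemiluminescent) and fitted for increase relative to 0.2% DMSO. Hepatocyte cultures from separate donors got fresh compound daily over two days; morphology annotated cytotoxicity.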

Read-out in assay [17]: Glyceraldehyde-3-phosphate dehydrogenase (Homo sapiens) (UniProt P04406)
Nature of the assay: CLD_GAPDH_24hr: CellzDirect (CLD) Gene Expression Assay for Baseline Control (Glyceraldehyde 3-phosphate dehydrogenase) at 24 hours (AID 2283692). Put shortly: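 GAPDH baseline-control readout: qNPA chemiluminescent mRNA signal in human primary hepatocytes harvested 24 h after daily dosing, normalised to 0.2% DMSO with positive fitting direction; cytotoxicity annotated by phase-contrast morphology.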

Read-out in assay [18]: ABC Transporter (ABCB11), ABCB11 (gene 8647)
Nature of the assay: CLD_ABCB11_48hr: CellzDirect (CLD) Gene Expression Assay for ABC Transporter (ABCB11) at 48 hours (AID 2283697). Put shortly:
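Induction of ABCB11 mRNA relative to 0.2% DMSO, measured at 48 h by qNPA chemiluminescence. Cultured human hepatocytes (two donors) received fresh dosing solutions at several concentrations on two consecutive days.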

Read-out in assay [19]: Cytochrome P450 2C19 (Homo sapiens) (UniProt P33261)
Nature of the assay: CLD_CYP2C19_48hr: CellzDirect (CLD) Gene Expression Assay for xenobiotic metabolism (CYP1A2) at 48 hours (AID 2283700).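 Further: fitted upward so actives raise CYP2C19 mRNA above the 0.2% DMSO vehicle.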 Put shortly: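 CYP2C19 mRNA induction read by chemiluminescent quantitative nuclease protection assay after 48 h, with fresh compound added daily for two days to cultured human liver hepatocytes. Activity fitted upward against 0.2% DMSO vehicle.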

The nature of assay [20]: CLD_ACTIN_48hr: CellzDirect (CLD) Gene Expression Assay for Baseline Control (Actin) at 48 hours (AID 2283702). Put shortly: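 Background-control actin mRNA read by qNPA chemiluminescence at 48 h. Human hepatocyte cultures from two donors received fresh multi-concentration chemical doses daily for two days; 0.2% DMSO served as vehicle baseline.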

We go through two compounds from PubChem BioAssay (EPA / NIEHS).

“And” between values parts separate entries of the source, which are not always exact repeats. Equal entries are not always repeated. The list shows a part of the results, in another mix than the full data. Results filed as inconclusive are left out. A structure can be active in one record and inactive in another. The source made the active and inactive calls. How the source made its calls: active means hit-call score of the fitted dose curve at least 0.9, where 1 is the maximum; inconclusive means response in the unintended direction; inactive means score below 0.9.

Take `CC(C)OP(=S)(OC(C)C)SCCNS(=O)(=O)c1ccccc1`: the compound was called inactive in [1], in assay [3], in assay [4], in assay [6], in assay [8] and in assay [9]. The compound was called inactive in [10], in assay [11] and in [16]. Moreover, the AC50 in assay [2] was active: 14.5 µM and active: 3.34 µM and active: 5.55 µM; in assay [3], active: 20000 nM; in assay [5], active: 6.94 µM and active: 814 nM and active: 2.27 µM; in [7], active: 9.47 µM and active: 1.9 µM; in assay [10] it was active: 548 nM; in [12], active: 10.1 µM and active: 1.9 µM and active: 1.99 µM. For the same compound, the concentration at half-maximal activity (AC50) in assay [13] was active: 1900 nM; in [14], active: 1.9 µM and active: 468 nM and active: 940 nM; in assay [15], active: 3.2 µM and active: 3.15 µM and active: 4.55 µM.

Regarding `O=C1C2CC=CCC2C(=O)N1SC(Cl)(Cl)C(Cl)Cl` (centres undefined), the call in assay [1], in assay [2], in assay [3], in assay [4], in [5] and in assay [7] was inactive. Moreover, the compound was classed as inactive in assay [8], in [17], in assay [10], in assay [11], in assay [18] and in assay [14]. Further, the compound was classed as inactive in [19], in assay [20], in [15] and in assay [16].

As a reminder, the AC50 is the concentration at which the activity in the assay is half-maximal.
